{"source": "paper PMC8080777", "about": "“Discovery, optimization, and evaluation of non-bile acid FXR/TGR5 dual agonists” (Scientific Reports, 2021)", "key": {"FXR": {"molecular_target": "T1, FXR (Homo sapiens, UniProt Q96RI1)", "T1 construct": "host or cells: CHO cells", "T1 sequence (Q96RI1 1-486)": "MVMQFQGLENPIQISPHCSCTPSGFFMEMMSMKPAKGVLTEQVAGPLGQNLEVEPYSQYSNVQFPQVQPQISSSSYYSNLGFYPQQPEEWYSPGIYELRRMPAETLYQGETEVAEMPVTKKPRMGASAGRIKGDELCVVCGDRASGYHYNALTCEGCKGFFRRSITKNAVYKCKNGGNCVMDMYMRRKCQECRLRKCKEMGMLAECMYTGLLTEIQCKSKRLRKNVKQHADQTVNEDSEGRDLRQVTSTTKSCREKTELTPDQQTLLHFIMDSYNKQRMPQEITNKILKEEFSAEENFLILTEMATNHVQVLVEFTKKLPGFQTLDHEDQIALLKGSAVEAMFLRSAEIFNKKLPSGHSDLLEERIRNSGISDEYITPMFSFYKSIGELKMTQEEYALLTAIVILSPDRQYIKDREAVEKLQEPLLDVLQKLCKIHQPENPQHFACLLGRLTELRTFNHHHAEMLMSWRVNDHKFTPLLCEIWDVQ", "assay": "CHO cell-based FXR luciferase reporter assay (Indigo Biosciences)", "protocol": "To evaluate direct agonist activities against FXR, test compounds were evaluated using a CHO cell-based FXR assay by Indigo Biosciences (State College, PA), in which cells were transfected with an FXR luciferase reporter system.\nTo directly evaluate the in vitro agonist activity towards FXR, test compounds were evaluated in CHO cells transfected with FXR responsive luciferase reporter (Nuclear Receptor & In Vitro Toxicology Solutions, Indigo Biosciences, State College, PA, USA). […] Each compound was tested in duplicate, and the average value was reported[35],[36]. […]\nTo directly evaluate the in vitro agonist activity towards FXR, test compounds were evaluated in CHO cells transfected with FXR responsive luciferase reporter (Nuclear Receptor & In Vitro Toxicology Solutions, Indigo Biosciences, State College, PA, USA). […]"}, "TGR5": {"molecular_target": "T2, TGR5 (Homo sapiens, UniProt Q8TDU6)", "T2 construct": "host or cells: CHO cells", "T2 sequence (Q8TDU6 1-330)": "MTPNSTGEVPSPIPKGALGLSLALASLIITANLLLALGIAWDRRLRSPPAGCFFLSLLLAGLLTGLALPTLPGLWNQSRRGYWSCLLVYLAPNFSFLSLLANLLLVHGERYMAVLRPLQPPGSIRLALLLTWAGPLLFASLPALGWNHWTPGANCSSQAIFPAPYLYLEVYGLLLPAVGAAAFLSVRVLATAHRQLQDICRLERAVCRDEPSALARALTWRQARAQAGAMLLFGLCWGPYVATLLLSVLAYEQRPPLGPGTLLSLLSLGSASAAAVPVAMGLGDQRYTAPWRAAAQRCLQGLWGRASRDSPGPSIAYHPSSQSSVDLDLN", "assay": "TGR5 cAMP assay in CHO cells transfected with TGR5 (cAMP Hunter eXpress, Discover X)", "type": "cell-based", "details": "% vs INT-767 10 µM as 100%", "protocol": "TGR5 agonist activity was evaluated by transfecting CHO cells with TGR5 using the Discover X expression kit (cAMP Hunter eXpress GPCR Assay, Discover X Fremont, CA). Cells were incubated with test compounds for 0.5 h, and intracellular cAMP levels were measured using the multi-mode microplate reader.\n(§1) TGR5 agonist activity was evaluated by transfecting CHO cells with TGR5 using the Discover X expression kit (cAMP Hunter eXpress Assay Kit, Discover X Fremont, CA, USA). Cells were incubated with the test compounds for 0.5 h, and intracellular cAMP levels were measured using Multi-Mode Microplate Reader (FlexStation 3, Molecular Devices Inc., San Jose, CA, USA).\nEach compound was tested at concentrations of 10, 1, or 0.1 µM in duplicate (n = 2), with the average value shown.\nS4. In vitro, in vivo assay, and selectvity. […]\nIn vitro TGR5 agonist assay protocol\nas §1\nEach compound was tested at concentrations of 10, 1, or 0.1 µM in duplicate (n=2), with the […]"}}}
{"smiles": "CN(C)c1ccc(-c2ccc(CN(C(=O)c3ccc(O)cc3)c3cc(Cl)cc(Cl)c3)cc2)cc1", "note": "[Compound 13ad]", "values": [{"measurement": "FXR agonist activity (in words)", "setting": "FXR", "value": "strong FXR activities"}, {"measurement": "FXR Efficacy (%) (1 µM)", "setting": "FXR; 1 µM, % vs OCA 1 µM as 100%", "value": 88.2, "unit": "%"}, {"measurement": "TGR5 Efficacy (%) (10 µM)", "setting": "TGR5", "value": 4.4, "unit": "%"}]}
